Columns and labels:
[1] = Water solubility, modified ASTM-D1766; conditions: Table VI
[2] = Salt spray exposure, Example VI (ASTM B117-73; alkyd and latex primers); conditions: FIG. 3; alkyd formulation

Row | Substance | Solubility Description [1] | Solubility ([1]; modified ASTM-D1766) | Salt spray durability, in words [2]
1 | Zinc Dodecanedioate Triethanolamine | PINS (practically insoluble (<.1 g/100 cc H2 O)) | .001 g/100 cc H2 O | –
2 | zinc dodecanedioate triethanolamine | – | – | superior to "Zinc Yellow" (zinc chromate) in salt spray durability

Reference: patent publication US4774345A, “Amine-complexed zinc salts of organic diacids” (Engelhard Corporation, priority 1986, dated 1988)
